Yeast mating assay 1: variants of the scFv Ab-14

The measurements come from Engelhart et al. 2022 (doi:10.1038/s41597-022-01779-4) through the FLAb antibody collection.

Target peptide (SARS-CoV-2 spike, HR2 region): PDVDLGDISGINAS

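The parent was found by panning a naive human phage display library on the peptide. Library AAYL49 holds single substitutions and randomly drawn double and triple substitutions in the CDRs. AlphaSeq pools MATa yeast showing the antibodies with MATalpha yeast showing the peptide. Binding brings cells together so that they mate, and sequencing counts the barcode pairs among the diploids. Scores were corrected for input abundance and mapped to Kd with protein pairs of known affinity run in the same pool. Each pool was mated in three replicate cultures.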

The variants keep the light chain, the linker and the frameworks of Ab-14 (scFv order VH, the linker GGGGSGGGGSGGGGS, VL).
VH: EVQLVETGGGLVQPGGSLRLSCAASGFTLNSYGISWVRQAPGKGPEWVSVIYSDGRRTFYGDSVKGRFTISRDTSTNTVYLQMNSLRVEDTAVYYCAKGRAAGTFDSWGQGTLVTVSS
VL: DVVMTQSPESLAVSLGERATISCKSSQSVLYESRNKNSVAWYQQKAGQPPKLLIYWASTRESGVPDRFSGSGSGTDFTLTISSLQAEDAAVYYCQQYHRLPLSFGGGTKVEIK

Substitutions are numbered in sequence along the VH above, starting at 1 (not Kabat).
Numbers give log10(Kd / nM), so 0 is 1 nM and 3 is 1 µM. Smaller is tighter.
Averages over replicates are reported, and they cover detected replicates only.
A pair that was not seen in any replicate is written "nd"; this usually means weak binding, but a binder can also be missed.
Order: sorted from the lowest average up, undetected variants last.

changes	mean log10 Kd (nM)	seen in	control signals
N30A G61R S63E	0.96	3/3	2/9
S31I K65D R100G	1.71	3/3	0/9
N30G V64K A101I	1.81	3/3	0/9
S53P F59N V64F	2.16	3/3	2/9
G26H T104F D106F	2.81	1/3	1/9
F27H G103R	2.81	3/3	0/9
Y52I D62L R100P	3.36	1/3	2/9
I51P Y52R G55D	3.49	1/3	2/9
S35M Y52K R100A	3.52	1/3	0/9
S35D R57N A102T	3.56	1/3	4/9
T28P K65G	3.58	1/3	1/9
S31K G33K I51K	3.59	1/3	4/9
L29W R57F A102N	3.72	2/3	0/9
I34Y Y60H G103L	3.73	1/3	2/9
Y32H A101S A102Q	3.85	2/3	2/9
S31K K65C	3.88	3/3	0/9
N30D G33R G99A	4.05	1/3	5/9
F27A D62N R100F	4.33	1/3	2/9
T28V Y32R D54K	4.46	2/3	1/9
S53V T58G T104K	4.50	2/3	2/9
L29F I51V R57T	4.58	3/3	2/9
D54G A102N	4.61	2/3	2/9
L29N R100E	4.67	3/3	6/9
V50A S63M A101K	4.76	2/3	2/9
V64W A102D T104M	4.77	3/3	7/9
Y52F S53Q G55L	4.78	2/3	1/9
L29N G55S F105P	4.85	2/3	2/9
F27P Y32A Y60S	4.86	1/3	0/9
R57F T58D A101K	5.11	1/3	3/9
Y52C D54L G55H	5.58	1/3	2/9
R57L T58Q Y60G	nd	0/3	3/9
Y32N K65C S107L	nd	0/3	1/9
S53Q R56N R57D	nd	0/3	1/9
S31V A102N	nd	0/3	1/9
F27C I51F G103V	nd	0/3	0/9
N30T V50E T104V	nd	0/3	2/9
D54N R56W G61H	nd	0/3	0/9
G26A D54R G103K	nd	0/3	0/9
F27T S35V S107M	nd	0/3	2/9
F27R S107F	nd	0/3	0/9
Y32D Y60R	nd	0/3	0/9
Y52H G55D F59E	nd	0/3	0/9
G26S V50T S107H	nd	0/3	1/9
D54E T104N S107R	nd	0/3	1/9
G26I L29G S31R	nd	0/3	0/9
D54N D62C A102P	nd	0/3	1/9
Y32N R100W A101D	nd	0/3	0/9
S35Q R100W A102E	nd	0/3	0/9
F59S K65S G103K	nd	0/3	1/9
G26P S35P A102M	nd	0/3	0/9
G26Y T58I A102Y	nd	0/3	0/9
V64I D106S S107Y	nd	0/3	0/9
Y60V A102N S107I	nd	0/3	0/9
N30I I51T A101C	nd	0/3	1/9
N30G Y52N K65T	nd	0/3	0/9
G55S R56Y T58P	nd	0/3	1/9
F27D G33Q V64L	nd	0/3	0/9
G26Y D62K G99F	nd	0/3	0/9
Y52M T104E	nd	0/3	0/9
T28A I34N F105P	nd	0/3	2/9
R57M D62E S107Q	nd	0/3	2/9
A101E A102V	nd	0/3	0/9

The last 7 entries again:

changes	mean log10 Kd (nM)	seen in	control signals
G55S R56Y T58P	nd	0/3	1/9
F27D G33Q V64L	nd	0/3	0/9
G26Y D62K G99F	nd	0/3	0/9
Y52M T104E	nd	0/3	0/9
T28A I34N F105P	nd	0/3	2/9
R57M D62E S107Q	nd	0/3	2/9
A101E A102V	nd	0/3	0/9

Nonspecific signal, from three strains lacking the peptide, appeared in 15% of pairings of library AAYL49, centred on 4.06 (5% of these signals below 2.83); values are not corrected for it. The control count says in how many pairings with the empty strains this scFv gave a signal.
Parent in this assay: reference entry 0.65, copy in this library 4.11 (one replicate of three).